{
  "sequences": {"note": "Amino acid sequences for entries named in this document (tags omitted).", "UniProt Q92743, whole entry": "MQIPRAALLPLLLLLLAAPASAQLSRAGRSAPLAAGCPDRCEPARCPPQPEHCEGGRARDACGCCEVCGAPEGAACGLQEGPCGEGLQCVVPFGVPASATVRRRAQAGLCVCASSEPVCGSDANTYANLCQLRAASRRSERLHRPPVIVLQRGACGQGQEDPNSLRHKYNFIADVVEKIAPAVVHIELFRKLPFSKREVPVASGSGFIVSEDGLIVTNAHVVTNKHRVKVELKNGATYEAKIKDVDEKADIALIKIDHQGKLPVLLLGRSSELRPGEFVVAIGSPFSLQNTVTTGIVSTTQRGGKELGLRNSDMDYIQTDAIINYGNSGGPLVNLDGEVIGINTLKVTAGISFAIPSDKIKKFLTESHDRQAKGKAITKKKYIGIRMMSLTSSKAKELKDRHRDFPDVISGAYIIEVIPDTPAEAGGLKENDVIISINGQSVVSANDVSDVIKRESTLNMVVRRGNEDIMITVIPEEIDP"},
  "source": "PubChem BioAssay AID504803",
  "about": "(The Scripps Research Institute Molecular Screening Center, 2011)",
  "note": "Only a part is listed here, and it is no random draw. Some salts and complexes are drawn in separate pieces, as the source files them; their charges need not balance. Activity calls are given as the source filed them. No stated cut-off is given here; in the data, active means inhibition above about 36%; inactive means the rest.",
  "data": [
    {"target": "Serine protease HTRA1 (Homo sapiens) (UniProt Q92743)", "experiment": "HTRA1 serine protease inhibitors, primary screen, biochemical, fluorescence polarization, HTS (AID 504803);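 further: 0% = enzyme with DMSO and 100% = wells lacking enzyme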", "details": "recombinant HTRA1, FP-rhodamine activity-based probe, at 5.96 µM, hits give high values", "values": [
      {"smiles": "CP(=O)(Nc1ccccc1F)Oc1ccccc1", "note": "(stereo not drawn)", "inhibition": "inactive: -1.36%"},
      {"smiles": "O=C(OCCN1CCN(CCOCc2ccccc2)CC1)C(O)(c1ccccc1)c1ccccc1", "inhibition": "inactive: 6.39%"},
      {"smiles": "O=C(OC1CN2CCC1CC2)c1ccc([N+](=O)[O-])cc1", "note": "(stereo not drawn)", "inhibition": "inactive: 9.43%"},
      {"smiles": "COc1ccc2c(c1O)-c1c(O)c(OC)cc3c1[C@H](C2)[N+](C)(C)CC3.O=[N+]([O-])c1cc([N+](=O)[O-])c([O-])c([N+](=O)[O-])c1[O-]", "inhibition": "inactive: -1.2%"},
      {"smiles": "COc1ccc(OP(C)(=O)Nc2ccc(SC(F)(F)F)cc2)cc1", "note": "(stereo not drawn)", "inhibition": "inactive: -20.1%"},
      {"smiles": "CCOC(=O)c1ccc(NP(C)(=O)Oc2ccc(F)cc2)cc1", "note": "(stereo not drawn)", "inhibition": "inactive: 3.54%"},
      {"smiles": "CCN(CC)CCCOC(=O)C(O)(c1ccccc1)C1CCCCC1", "note": "(stereo not drawn)", "inhibition": "inactive: 19.8%"},
      {"smiles": "Cc1c([N+](=O)[O-])cc([N+](=O)[O-])c(Br)c1[N+](=O)[O-]", "inhibition": "inactive: 0.57%"},
      {"smiles": "O=[N+]([O-])c1cc([N+](=O)[O-])c(OC2CCCCC2O)c([N+](=O)[O-])c1", "note": "(stereo not drawn)", "inhibition": "inactive: -20.5%"},
      {"smiles": "CCCCCOc1ccc(NP(C)(=O)Oc2ccc(Cl)cc2Cl)cc1", "note": "(stereo not drawn)", "inhibition": "inactive: -31.2%"},
      {"smiles": "CP(=O)(Nc1ccccc1)Oc1ccc(F)cc1", "note": "(stereo not drawn)", "inhibition": "inactive: -1.68%"},
      {"smiles": "O=C1C(O)=C([N+](=O)[O-])C(=O)C(O)=C1[N+](=O)[O-]", "inhibition": "inactive: 2.46%"},
      {"smiles": "Cc1cc(C)cc(OP(C)(=O)Nc2cccc(C(F)(F)F)c2)c1", "note": "(stereo not drawn)", "inhibition": "inactive: -8.35%"},
      {"smiles": "COc1ccc(OP(C)(=O)Nc2ccccc2Br)cc1", "note": "(stereo not drawn)", "inhibition": "inactive: -4.77%"},
      {"smiles": "COc1ccccc1OP(C)(=O)Nc1ccc(C)c(C)c1", "note": "(stereo not drawn)", "inhibition": "inactive: -1.84%"},
      {"smiles": "CP(=O)(OCCOc1ccccc1)OCCOc1ccccc1", "inhibition": "inactive: 5.95%"},
      {"smiles": "CP(=O)(Nc1ccc(Cl)cc1Cl)Oc1ccccc1", "note": "(stereo not drawn)", "inhibition": "inactive: 0.77%"},
      {"smiles": "CCCCCCCCCCCCCCCC1C[N+](C)(C)CCOP(C)(=O)O1", "note": "(stereo not drawn)", "inhibition": "active: 74.7%"},
      {"smiles": "COc1ccccc1OP(C)(=O)Nc1ccc(Br)cc1", "note": "(stereo not drawn)", "inhibition": "inactive: -3.35%"},
      {"smiles": "CN(C)CCOC(=O)C(O)(c1ccccc1)C1CCCC1", "note": "(stereo not drawn)", "inhibition": "inactive: 16.5%"},
      {"smiles": "COc1ccc(OP(C)(=O)Nc2ccccn2)cc1", "note": "(stereo not drawn)", "inhibition": "inactive: 1.19%"},
      {"smiles": "O=[N+]([O-])c1cc([N+](=O)[O-])c(Nc2ccccn2)c([N+](=O)[O-])c1", "inhibition": "inactive: 2.07%"},
      {"smiles": "Cc1c(NP(C)(=O)Oc2ccc(C(C)C)cc2)c(=O)n(-c2ccccc2)n1C", "note": "(stereo not drawn)", "inhibition": "inactive: 1.47%"},
      {"smiles": "CCc1ccc(OP(C)(=O)O)cc1", "inhibition": "inactive: -1.33%"},
      {"smiles": "CP(=O)(Nc1ccccn1)Oc1ccccc1", "note": "(stereo not drawn)", "inhibition": "inactive: 5.56%"},
      {"smiles": "COc1ccccc1OP(C)(=O)Nc1ccc(C)cc1C", "note": "(stereo not drawn)", "inhibition": "inactive: -0.77%"},
      {"smiles": "CCN(CC)CC(O)COC(=O)C(O)(c1ccccc1)C1CCCCC1", "note": "(stereo not drawn)", "inhibition": "inactive: -2.28%"},
      {"smiles": "COc1ccc(OP(C)(=O)Nc2ccc(Br)cc2)cc1", "note": "(stereo not drawn)", "inhibition": "inactive: 4.65%"},
      {"smiles": "CP(=O)(Oc1ccccc1)N1CCOC1=O", "note": "(stereo not drawn)", "inhibition": "inactive: 5.76%"},
      {"smiles": "CCc1ccc(OP(C)(=O)Nc2cccnc2)cc1", "note": "(stereo not drawn)", "inhibition": "inactive: 5.65%"},
      {"smiles": "COc1ccccc1OP(C)(=O)Nc1c(C)n(C)n(-c2ccccc2)c1=O", "note": "(stereo not drawn)", "inhibition": "inactive: 2.08%"},
      {"smiles": "O=C(OCCCN1CCCC1)C(O)(c1ccccc1)C1CCCCC1", "note": "(stereo not drawn)", "inhibition": "inactive: 5.72%"},
      {"smiles": "CP(=O)(Nc1ccc(Cl)cc1)Oc1ccc(F)cc1", "note": "(stereo not drawn)", "inhibition": "inactive: -13.1%"},
      {"smiles": "CC(C)(C)c1ccc(OP(C)(=O)O)cc1", "inhibition": "inactive: 10.1%"},
      {"smiles": "COc1ccccc1OP(C)(=O)Nc1ccccc1Br", "note": "(stereo not drawn)", "inhibition": "inactive: 0.4%"},
      {"smiles": "CN(C)C(=O)c1c([N+](=O)[O-])cc([N+](=O)[O-])cc1[N+](=O)[O-]", "inhibition": "inactive: -14.8%"},
      {"smiles": "CP(=O)(OC12CC3CC(CC(C3)C1)C2)OC12CC3CC(CC(C3)C1)C2", "inhibition": "inactive: -6.01%"},
      {"smiles": "CCOC(=O)c1ccc(NP(C)(=O)Oc2ccc(Cl)cc2)cc1", "note": "(stereo not drawn)", "inhibition": "inactive: -3.46%"}
    ]}
  ]
}
